Key:
[1] = tested on: B. subtilis / cytotoxicity EC50; test: Selectivity index (SI) using B. subtilis MICs
Description: (§1) Additionally, the antimicrobial compounds were analyzed for cytotoxicity. […] We utilized the standard MTT assay (Promega CellTiter 96) and GraphPad Prism 7 software to determine EC50 values for each analogue. Briefly, 20,000 HepG2 cells in 200 μl of the ATCC recommended media were seeded in each well of a 96-well plate with a moisture barrier created in the outermost wells. The cells were allowed to attach overnight at 37° C., and then observed under phase contrast microscopy for proper morphological characteristics. If cells appeared healthy and attached, test compounds were added in 7 concentrations from […] (n=3) from freshly prepared DMSO stock plates. […] Once incubations were complete, the spectrophotometric absorbance of the samples was measured at a wavelength of 595 nm. […] For the HepaRG assay, NoSpin HepaRG™ cells (Lonza, cat #NSHPRG) were thawed and plated with 20,000 cells per well. They were allowed to attach for 4 h (optimal DME profile per Lonza's testing) before dosing following the identical protocol as above.

HepaRG cells = test: Cytotoxicity MTT assay in HepaRG cells; type: cell-based, human; settings: Table 1; HepaRG cytotoxicity versus pathogen MIC
Description: as §1

[2] = tested on: pathogens and skin commensals; settings: Table 1
[3] = tested on: T. rubrum, S. aureus, R. mucosa, S. epidermidis; settings: on polyester fabric; FIGS. 5A-5B

SMILES | SI (selectivity index) [1] | Selectivity Index (SI) (HepaRG cells) | Selectivity Pathogens to commensal [2] | selectivity for inhibiting pathogenic microbes over commensal microbes [3]
Oc1ccc(Sc2c[nH]c3ccccc23)cc1 [Compound 156I, 4-((1H-indol-3-yl)thio)phenol] | 0.6 | >1 | >4 | selectively inhibits pathogens T. rubrum over commensal microbes R. mucosa and S. epidermidis
Oc1ccccc1Sc1c[nH]c2ccc(Br)cc12 [Compound 174AI, 2-((5-bromo-1H-indol-3-yl)thio)phenol] | 35.1 |  |  | 
Cc1[nH]c2ccc(Br)cc2c1Sc1ccccc1Br [Compound 174AZ, 5-bromo-3-((2-bromophenyl)thio)-2-methyl-1H-indole] | 25.7 |  |  | 
Brc1ccc2[nH]cc(Sc3ccccc3Br)c2c1 [Compound 174I, 5-bromo-3-((2-bromophenyl)thio)-1H-indole] | 32.6 |  |  | 
Nc1ccccc1Sc1c[nH]c2ccc(Br)cc12 [Compound 174M, 2-((5-bromo-1H-indol-3-yl)thio)aniline] | 42.4 | 43->85 |  | 
